In patent publication US10695406B2, “Modulation of cellular stress using a B-cell oxidative and/or endoplasmic reticulum stress inhibitor and a targeting agent” (THE UNIVERSITY OF QUEENSLAND, priority 2014, dated 2020):

System: MIN6N8 murine β-cells
Test: ER stress (ERAI reporter of Xbp1-splicing / Xbp1 splicing) in MIN6N8 β-cells
Type: cell-based
Conditions: 50 ng/mL cytokines, 24 hour
Experimental: MIN6N8 cells are maintained in line with standard protocols. Cells are transfected with either the ERAI reporter plasmid (F-XBP1ΔDBD-Venus), or the ATF6-GFP plasmid (ADGENE), using LIPFECTAMINE 2000 according to the manufacturer's instructions.
On induction of ER stress, splicing of […] mRNA by IRE1a results in the translation of Venus, but not an active form of XBP1. Fluorescence was measured (excitation: 485 nm; emission: 520 nm) using the POLARstar Omega plate reader and cells were treated 48 h after transfection. The results are normalized with Gapdh expression as fold of vehicle-treated control (Con) cells.
Activation of ATF6 was assessed as follows: the area in pixels per square millimeter co-stained ATF6 and DAPI (blue and green), and total ATF6 staining (green) was determined in 5 fields of view for each section (n=6 for each condition) using IMAGEJ software version 1.45s. Data are presented as the percentage of ATF6 and DAPI co-fluorescence to the total ATF6 fluorescence. Phosphorylation of Ser-51 of eiF2 α was determined by an AlphaScreen assay as per the manufacturer's instructions (PERKIN-ELMER). […]
MIN6N8 cells were exposed to a panel of cytokines to determine the effect of each cytokine on ER stress. ER stress was measured using the above-described method. […]

B1: IFN-β: ER stress-inducing cytokine (protein, UniProt P01574 22-187, looked up)
Interferon beta: MSYNLLGFLQRSSNFQCQKLLWQLNGRLEYCLKDRMNFDIPEEIKQLQQFQKEDAALTIYEMLQNIFAIFRQDSSSTGWNETIVENLLANVYHQINHLKTVLEEKLEKEDFTRGKLMSSLHLKRYYGRILHYLKAKEYSHCAWTIVRVEILRNFYFINRLTGYLRN
induction of ER stress (ERAI reporter of Xbp1-splicing): lower stress response
